Earlier results in patent publication US20250297028A1, “TREATMENT OF RENAL CANCER USING A COMBINATION OF AN ANTI-PD-1 ANTIBODY AND ANOTHER ANTI-CANCER AGENT” (BRISTOL-MYERS SQUIBB COMPANY, priority 2014, published 2025).

How the values were obtained:
[1] = system: renal cell carcinoma (RCC); details: basis of approval; cited from earlier work
[2] = human, in vivo; cited from earlier work

IL-2: cytokine, systemic treatment for advanced or metastatic RCC
durable response rate [1]: 15% | toxicity: diarrhea [2]: 67% | toxicity: dyspnea [2]: 43% | toxicity: hypotension [2]: 71% | toxicity: rash [2]: 42% | toxicity: supraventricular tachycardia [2]: 12%
